Laboratory results published in patent US8993594B2, “Isoquinolin-1(2H)-one derivatives as PARP-1 inhibitors” (Nerviano Medical Sciences S.R.L., priority 2009, dated 2015).
pKd: −log10 of the molar value.

Protein sequences, listed by entry. Tags and fused reporters are not part of them. Lines headed by an entry give the natural chain unless they say otherwise; changes in a name come on top.
UniProt Q9UGN5: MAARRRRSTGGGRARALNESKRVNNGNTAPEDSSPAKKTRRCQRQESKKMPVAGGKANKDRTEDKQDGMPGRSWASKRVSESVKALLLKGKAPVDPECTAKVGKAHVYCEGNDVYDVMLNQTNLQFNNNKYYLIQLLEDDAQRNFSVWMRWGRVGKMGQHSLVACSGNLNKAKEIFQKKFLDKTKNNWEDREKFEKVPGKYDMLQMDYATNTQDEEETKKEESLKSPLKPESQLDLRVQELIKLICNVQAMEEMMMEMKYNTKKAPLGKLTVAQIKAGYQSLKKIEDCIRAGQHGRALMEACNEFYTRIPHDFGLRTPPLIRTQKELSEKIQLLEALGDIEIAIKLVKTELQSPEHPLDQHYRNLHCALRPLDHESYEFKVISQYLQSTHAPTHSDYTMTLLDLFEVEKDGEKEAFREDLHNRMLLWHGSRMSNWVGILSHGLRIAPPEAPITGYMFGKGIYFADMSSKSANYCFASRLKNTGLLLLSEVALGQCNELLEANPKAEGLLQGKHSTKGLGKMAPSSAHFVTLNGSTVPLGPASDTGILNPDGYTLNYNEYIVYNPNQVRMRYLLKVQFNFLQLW

Target: PARP-2 FL (Homo sapiens, UniProt Q9UGN5)
Assay: Fluorescence polarization probe displacement assay
Assay type: binding
Conditions: PARP-2 FL 250 nM, probe compound P1 50 nM; average of three experiments; * = assay sensitivity limit

pKd: > 7.52
SMILES: CN(C)CC(=O)Nc1ccc2[nH]c(=O)c3ccccc3c2c1 [PJ34, reference compound]
